Experimental data as given in patent publication US9458141B2, “Low molecular weight thyroid stimulating hormone receptor (TSHR) agonists” (The United States of America, as represented by the …, priority 2008, dated 2016).

The chains behind the UniProt entries cited, without tags or fusion partners. Residues count along the entry.
UniProt P47750, 22-764: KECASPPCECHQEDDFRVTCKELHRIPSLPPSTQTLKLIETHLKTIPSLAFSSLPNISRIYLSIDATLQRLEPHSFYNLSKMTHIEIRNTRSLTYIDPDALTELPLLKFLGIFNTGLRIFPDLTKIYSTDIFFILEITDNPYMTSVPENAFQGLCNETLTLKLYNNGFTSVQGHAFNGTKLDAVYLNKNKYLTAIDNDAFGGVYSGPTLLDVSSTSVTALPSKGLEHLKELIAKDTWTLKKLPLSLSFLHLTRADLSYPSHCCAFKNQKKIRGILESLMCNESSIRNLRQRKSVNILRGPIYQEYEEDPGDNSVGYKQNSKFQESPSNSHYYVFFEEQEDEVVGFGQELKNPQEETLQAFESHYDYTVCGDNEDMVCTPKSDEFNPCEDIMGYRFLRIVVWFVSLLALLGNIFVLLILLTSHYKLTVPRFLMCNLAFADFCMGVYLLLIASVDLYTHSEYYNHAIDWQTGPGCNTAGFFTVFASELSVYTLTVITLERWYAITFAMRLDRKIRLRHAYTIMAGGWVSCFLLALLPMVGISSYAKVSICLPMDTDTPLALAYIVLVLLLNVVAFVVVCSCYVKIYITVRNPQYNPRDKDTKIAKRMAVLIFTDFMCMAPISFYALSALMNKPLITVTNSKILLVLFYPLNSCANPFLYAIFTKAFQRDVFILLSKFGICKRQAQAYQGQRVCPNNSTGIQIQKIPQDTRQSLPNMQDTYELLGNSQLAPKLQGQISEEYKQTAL

Molecular target: T1, TSHR (Mus musculus, UniProt P47750)
T1 construct: from tissue; host or cells: whole animal, C57 BL/6 mice (thyroid TSHR); read-out is serum total T4
Assay: In vivo TSHR activation in mice, serum total thyroxine (T4)
Conditions: C57 BL/6 mice, intraperitoneal injection, 20 ug compound or 30 ug TSH, 2 hours after administration
Procedure: We have shown in vitro using transfected cells that compounds disclosed herein activate the mouse TSHR with similar potency and efficacy as human TSHR. Because the known physiology of TSHRs is similar in mice and humans, in vivo studies in mice offer an ideal preclinical model for assessing possible clinical applications for these compound disclosed herein. We determined if one compound disclosed herein can activate TSHR when administered by intraperitoneal injection. 20 ug of the compound disclosed herein and 30 ug TSH in PBS containing 2% DMSO were administered to unanesthetized C57 BL/6 mice. The experimental endpoint was total thyroxine (T4) measurement in serum obtained from terminal retroorbital bleeds from anesthetized mice 2 hours after administration of the compound or TSH. Total T4 levels did rise after injection of TSH and of the compound disclosed herein.

total T4 levels in serum: did rise
Substance: TSH: "Thyroid-stimulating hormone (TSH) is a heterodimeric glycoprotein hormone that regulates thyroid homeostasis"
